Measured values as given in PubChem BioAssay AID485358 (National Center for Advancing Translational Sciences (NCATS), 2010).
Only a part is listed here, and it is no random draw. Calls of active or inactive are those of the source.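 Rule for the calls: active = activation over 3 SD above normal in the single-dose calcium agonist read (cut at about 30% in these data); inactive = the rest.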

Sequences of proteins named here, by UniProt entry; tags and fusion partners are left off.
UniProt P14416, whole entry, looked up: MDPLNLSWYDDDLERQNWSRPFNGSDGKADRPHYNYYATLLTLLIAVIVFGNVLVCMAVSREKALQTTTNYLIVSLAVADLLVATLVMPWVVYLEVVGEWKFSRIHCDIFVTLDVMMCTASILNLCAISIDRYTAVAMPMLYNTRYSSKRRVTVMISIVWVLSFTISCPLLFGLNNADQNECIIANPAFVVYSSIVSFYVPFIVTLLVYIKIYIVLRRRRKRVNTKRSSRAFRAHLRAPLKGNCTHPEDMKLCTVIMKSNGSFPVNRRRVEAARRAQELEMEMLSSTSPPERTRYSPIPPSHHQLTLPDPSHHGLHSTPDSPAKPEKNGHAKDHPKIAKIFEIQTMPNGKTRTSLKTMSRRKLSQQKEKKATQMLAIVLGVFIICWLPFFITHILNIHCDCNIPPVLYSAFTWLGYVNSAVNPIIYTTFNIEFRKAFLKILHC

Molecular target: D(2) dopamine receptor (Homo sapiens) (UniProt P14416)
Experiment: HTS Assay for Allosteric Agonists of the Human D2 Dopamine Receptor: Primary Screen for Agonists; note: 0% is about no effect
Settings: HEK293 T-REx D2 cells, calcium flux agonist mode; at 2 µM; stronger effect = higher value
Source text: NIH Chemical Genomics Center [NCGC] NIH Molecular Libraries Probe Centers Network [MLPCN] MLPCN Grant: NS064831-01 Assay Submitter (PI): David Sibley Dopamine receptors (DARs) are involved in the etiology and/or therapy of a number of neuropsychiatric and endocrine disorders. For instance, all receptor-based antiparkinsonian drugs work via stimulating the D2 DAR subtype whereas all FDA-approved antipsychotic agents are antagonists of this receptor. […] There are three different types of allosteric modulators that we are seeking, two of which will stimulate or augment receptor signaling, allosteric agonists and potentiators, while the third, allosteric antagonists, will attenuate receptor signaling. The present primary screening assay measures compound agonism by tracking calcium flux in a […], inducible Hek293 Trex D2 cell line.
Freshly passaged cells are plated in 1536 well black, clear bottom plates at a density of 4000 cells/well in 3 ul of complete media containing 1x tetracycline inducer. After an overnight incubation at […] in 5% CO2, cells are loaded with 2 ul of the no wash Calcium Assay Kit (ABD Bioquest) and incubated at room temperature for 30 to 90 minutes. Agonist read: A 10 cycle (1 second/cycle) baseline measurement is taken and then the FDSS online 1536 pintool delivers 23 nl of compound library (as well as dopamine controls) to the plate. The plate is measured for kinetically at 1 cycle/sec for 180 seconds and is considered to be the agonist portion of the assay (eg, compounds which activate a positive calcium response during this portion are flagged as potential agonists). Following the 180 second read, 1 ul of either an EC20 (positive modulation assay) or EC80 (negative modulation assay) is delivered by an onboard pipette head. Measurements are taken kinetically for an additional 180 seconds.

| Structure (SMILES) | activation |
| --- | --- |
| Cc1ccc(NP(=O)(Oc2ccccc2F)Oc2ccccc2F)nc1 | inactive: -0.42% |
| Cc1cc(SC(NC(=O)c2ccc(F)cc2)C(Cl)(Cl)Cl)ncn1 (stereo not given) | inactive: -0.127% |
| CCOP(=O)(Nc1ccccc1)OCC | inactive: 0.0349% |
| CC(=O)Nc1ccc([As](=O)(O)O)cc1 | inactive: 1.01% |
| O=C(O)c1ccccc1[As](=O)(O)O | inactive: -3.32% |
| O=P(Nc1nc2ccc(Cl)cc2s1)(c1ccccc1)c1ccccc1 | inactive: -1.85% |
| CCN(N=Nc1nonc1N)c1nonc1N | inactive: 0.207% |
| Nc1cccc2ccc([As](=O)(O)O)cc12 | inactive: -0.486% |
| O=[N+]([O-])c1cc([N+](=O)[O-])c(CCN2CCOCC2)c([N+](=O)[O-])c1 | inactive: 0.486% |
| Cc1ccc(OP(=O)(Nc2nccs2)Oc2ccc(C)cc2)cc1 | inactive: -0.121% |
| COc1ccccc1OP(=O)(Nc1ccc(C)cn1)Oc1ccccc1OC | inactive: 0.267% |
| CN1CCCC(OC(=O)C(c2ccccc2)c2ccccc2)C1 (stereo not given) | inactive: 0.973% |
| Clc1ccc(Cl)c(NC2=NCC(CBr)S2)c1 (stereo not given) | inactive: -1.01% |
| NC(=O)c1cc([N+](=O)[O-])cc([N+](=O)[O-])c1N | inactive: -0.513% |
| Cc1ccc(N/C(=N/P(=O)(N2CCOCC2)N2CCOCC2)N2CCOCC2)cc1 | inactive: 0.188% |
| CN(C(=O)Cc1ccc(Cl)c(Cl)c1)[C@H]1CCCC[C@H]1N1CCCC1 | inactive: 0.954% |
| Nc1cc(N)c2nonc2c1[N+](=O)[O-] | inactive: -0.551% |
| O=C(NC(Sc1ccncn1)C(Cl)(Cl)Cl)c1ccccc1 (stereo not given) | inactive: 0.435% |
| Cc1c2non([O-])c-2c(C)[n+](=O)[n+]1[O-] | inactive: 0.45% |
| Oc1ccccc1CNc1ccccn1 | inactive: 0.85% |
| CC(=O)N1C2C3N(C(C)=O)C1C1N(C(C)=O)C(C(N1C(C)=O)N3C(C)=O)N2C(C)=O | inactive: -0.651% |
| O=[N+]([O-])c1cccc2n[nH]nc12 | inactive: 0.0657% |
| O=[N+]([O-])c1cc([N+](=O)[O-])c(CCNc2ccccc2)c([N+](=O)[O-])c1 | inactive: -0.725% |
| CCc1nc2c(n1)c1c(non1O)c1c2no[n+]1[O-] | inactive: -0.0797% |
| Cc1ccc(NP(=O)(Oc2ccccc2)Oc2ccccc2)nc1 | inactive: -0.472% |

| Structure (SMILES) | activation |
| --- | --- |
| COc1ccc(C2=NCC(CBr)S2)cc1 (stereo not given) | inactive: -0.451% |
| CN(C)C(=O)OCCc1n(C)cc[n+]1C | inactive: -2.29% |
| CC(C)=N/N=C(\N)N[N+](=O)[O-] | inactive: -0.976% |
| CC1CCN(C(=O)Oc2c(Cl)cc(Cl)c3cccnc23)CC1 | inactive: 0.83% |
| C[N+]1=C2C=CC=CC=C2SC12C([N+](=O)[O-])=CC([N+](=O)[O-])=C[C-]2[N+](=O)[O-] (stereo not given) | inactive: 8.31% |
| Nc1ccc([As](=O)(O)c2ccc(N)cc2)cc1 | inactive: 0.691% |
| CCN(/C(=N/P(=O)(N1CCOCC1)N1CCOCC1)N1CCOCC1)c1ccc(OC)cc1 | inactive: 0.0616% |
| O=C(Nc1cc([As](=O)(O)O)ccc1O)c1ccccc1 | inactive: -1.46% |
| O=[N+]([O-])c1cccc(NC2=NCC(CBr)S2)c1 (stereo not given) | inactive: 0.234% |
| O=C(O)CNc1ccc([As](=O)(O)O)cc1 | inactive: 0.222% |
| CC(C)(C)C(=O)NC(Sc1ccncn1)C(Cl)(Cl)Cl (stereo not given) | inactive: 0.91% |
| O=[N+]([O-])c1ncn(CCn2ncnc2[N+](=O)[O-])n1 | inactive: 0.65% |
| O=P(Nc1nc2ccccc2s1)(c1ccccc1)c1ccccc1 | inactive: 0.6% |
| CN(C)C1(CNC(=O)c2ccc(Cl)c(S(N)(=O)=O)c2)CCCCC1 | inactive: 0.321% |
| O=P(Nc1ccccn1)(c1ccc(Br)cc1)c1ccc(Br)cc1 | inactive: 0.75% |
| C(Cc1nn[nH]n1)Cc1nn[nH]n1 | inactive: -0.311% |
| Nc1ccc([As](=O)(O)c2ccc([N+](=O)[O-])cc2)cc1 | inactive: 0.203% |
| O=C(OC1CN2CCC1CC2)c1cccc(Cl)c1 (stereo not given) | inactive: -0.106% |
| O=[N+]([O-])c1ncn(CCn2cnc([N+](=O)[O-])n2)n1 | inactive: 0.532% |
| CC(=O)NC(SC(=S)N(C)C)C(Cl)(Cl)Cl (stereo not given) | inactive: 1.24% |
| O=[N+]([O-])c1ccc(O)c(/C=N/Nc2ccc([N+](=O)[O-])cc2[N+](=O)[O-])c1 | inactive: 1.42% |
| c1nnnn1CCn1cnnn1 | inactive: 0.226% |
| O=P(Nc1nccs1)(c1ccccc1)c1ccccc1 | inactive: 0.193% |
| CC(C)C(=O)NC(Sc1ccccc1)C(Cl)(Cl)Cl (stereo not given) | inactive: -0.666% |
| CC(C)(C)C(=O)NC(Sc1ccccc1)C(Cl)(Cl)Cl (stereo not given) | inactive: -0.961% |

| Structure (SMILES) | activation |
| --- | --- |
| CCOc1ccc(C2=NCC(CBr)S2)cc1 (stereo not given) | inactive: 0.933% |
| O=P1(Nc2nc3ccc(Cl)cc3s2)COc2ccccc2O1 (stereo not given) | inactive: -0.102% |
| CC(=O)Nc1ccc(Oc2c([N+](=O)[O-])cc([N+](=O)[O-])cc2[N+](=O)[O-])cc1 | inactive: -0.0645% |
| CC(=O)Nc1ccc([As](=O)(O)O)c(O)c1 | inactive: 0.803% |
| CC(=O)c1ccc(N2CC2c2ccncc2)cc1 (stereo not given) | inactive: 0.322% |
| C[C@H]1OP(=O)(Oc2ccccc2)C[C@@H]2O[C@@H]21 (stereo not given in full) | inactive: -0.334% |
| C[C@@H]1C=CCP(=O)(Oc2ccccc2)O1 (stereo not given in full) | inactive: 0.554% |
| O=C(NC1CCS(=O)(=O)C1)NP(=S)(Oc1ccccc1)Oc1ccccc1 (stereo not given) | inactive: -0.0824% |
| CCOC(=O)NC(Sc1ccccc1)C(Cl)(Cl)Cl (stereo not given) | inactive: -0.254% |
| Cc1ccc(NP(=O)(Oc2cccc(C)c2)Oc2cccc(C)c2)nc1 | inactive: 0.136% |
| c1ccc(-c2nn[nH]n2)c(-c2nn[nH]n2)c1 | inactive: 0.424% |
| O=c1c2cc([N+](=O)[O-])ccc2[nH]c2c([N+](=O)[O-])cc([N+](=O)[O-])cc12 | inactive: 25.2% |
| CN(C)C(=O)Oc1noc2ccccc12 | inactive: 0.191% |
| Cc1ccccc1OP(=O)(Nc1ccccn1)Oc1ccccc1C | inactive: -0.948% |
| Cc1ccc(OP(=O)(Nc2ccccn2)Oc2ccc(C)cc2)cc1 | inactive: -7.57% |
| CC(=O)NC(SC(=S)N(CC(C)C)CC(C)C)C(Cl)(Cl)Cl (stereo not given) | inactive: -0.854% |
| COC(=O)c1cc2c(s1)N=C(c1ccccc1)N(C)P2(=O)N1CCOCC1 (stereo not given) | inactive: 0.421% |
| CCC(=O)N1C2C3N(C(=O)CC)C1C1N(C(=O)CC)C(C(N1C(=O)CC)N3C(=O)CC)N2C(=O)CC | inactive: 0.241% |
| O=C(OC1CN2CCC1CC2)c1ccccc1 (stereo not given) | inactive: 0.291% |
| O=C(O)COc1ccc([As](=O)(O)O)cc1[N+](=O)[O-] | inactive: -0.365% |
| Nc1ccccc1[As](=O)(O)c1ccccc1 | inactive: 0.1% |
| CS(=O)(=O)c1cc([N+](=O)[O-])c2no[n+]([O-])c2c1 | inactive: 0.156% |
| O=P(Nc1nccs1)(Oc1ccccc1)Oc1ccccc1 | inactive: -0.823% |
| O=P(Nc1nccs1)(c1ccccc1)c1nc2ccccc2s1 (stereo not given) | inactive: 0% |
| O=[N+]([O-])c1ccc2c(c1)nnn2O | inactive: -0.425% |

| Structure (SMILES) | activation |
| --- | --- |
| CCOP1(=S)c2c(C)nn(CCC#N)c2N=C(c2ccc(F)cc2)N1C (stereo not given) | inactive: 0.404% |
| CN(C(=O)Cc1ccccc1)[C@@H]1CC[C@]2(CCCO2)C[C@H]1N1CCCC1 | inactive: -0.831% |
| N#CCCN(C(=O)COC(=O)C(O)(c1ccccc1)c1ccccc1)c1ccc(F)cc1 | inactive: 0.592% |
| NC(=O)Nc1ccc([As](=O)(O)O)cc1 | inactive: 0.267% |
| Cc1cccc(OCC(=O)OC2CN3CCC2CC3)c1 (stereo not given) | inactive: -0.686% |
| O=[As](O)(c1cccc(O)c1)c1cccc(O)c1 | inactive: 1.1% |
| CS(=O)(=O)c1ccc(Cl)c(NC(=O)COC(=O)C(O)(c2ccccc2)c2ccccc2)c1 | inactive: -0.668% |
| O=[As](O)(O)c1cccnc1 | inactive: 2.4% |
| COc1cc(C(=O)NCC2(N3CCOCC3)CCCCC2)cc(Cl)c1OC(C)C | inactive: 1.6% |
| O=C(OC1CN2CCC1CC2)c1ccc(Cl)cc1 (stereo not given) | inactive: -1.71% |
| CCOP(=O)(Nc1cccc2ccccc12)OCC | inactive: 1.85% |
| COc1cc(C2NCCC3(OCCO3)C2(C)C)cc(OC)c1OC (stereo not given) | inactive: -0.136% |
| CCCOP(=S)(Nc1nc(N)cc(=O)[nH]1)OCCC | inactive: -1.67% |
| Nc1cccc2c([As](=O)(O)O)cccc12 | inactive: 13.1% |
| Cc1ccc(NCCc2c([N+](=O)[O-])cc([N+](=O)[O-])cc2[N+](=O)[O-])cc1 | inactive: -0.563% |
| CC(C)(C)C(=O)NC(Sc1ncccn1)C(Cl)(Cl)Cl (stereo not given) | inactive: 0.0145% |
| Clc1n[nH]nc1-c1nn[nH][15n]1 | inactive: 0.416% |
| CCOP(=O)(Nc1ccc(C)cn1)OCC | inactive: 1.05% |
| CCOP(=O)(NC(=NC(C)c1ccccc1)NC(C)c1ccccc1)OCC (stereo not given) | inactive: -3.13% |
| CCC1=CC2Cc3nc4ccc(Cl)cc4c(N)c3C(C1)C2 (stereo not given) | inactive: 0.841% |
| O=P1(Nc2ccccn2)COc2ccccc2OC1 | inactive: 0.69% |
| O=[As](O)(c1ccccc1Br)c1ccccc1Br | inactive: 4.29% |
| CN(C(=O)Cc1ccc(Cl)c(Cl)c1)[C@@H]1CCCC[C@H]1N1CCCC1 | inactive: -1.35% |
| CC(C)/C=N\N=C(\N)N[N+](=O)[O-] | inactive: -0.0332% |
| COc1ccccc1CNC(=O)COC(=O)C(O)(c1ccccc1)c1ccccc1 | inactive: -0.261% |
